Test results: patent US20230322761A1, “DEGRADATION OF BRUTON'S TYROSINE KINASE (BTK) BY CONJUGATION OF BTK INHIBITORS WITH E3 LIGASE LIGAND AND METHODS OF USE” (BEIGENE, LTD., priority 2020, published 2023)

Amino acid sequences for entries named in this document (tags omitted).
UniProt Q06187, whole entry: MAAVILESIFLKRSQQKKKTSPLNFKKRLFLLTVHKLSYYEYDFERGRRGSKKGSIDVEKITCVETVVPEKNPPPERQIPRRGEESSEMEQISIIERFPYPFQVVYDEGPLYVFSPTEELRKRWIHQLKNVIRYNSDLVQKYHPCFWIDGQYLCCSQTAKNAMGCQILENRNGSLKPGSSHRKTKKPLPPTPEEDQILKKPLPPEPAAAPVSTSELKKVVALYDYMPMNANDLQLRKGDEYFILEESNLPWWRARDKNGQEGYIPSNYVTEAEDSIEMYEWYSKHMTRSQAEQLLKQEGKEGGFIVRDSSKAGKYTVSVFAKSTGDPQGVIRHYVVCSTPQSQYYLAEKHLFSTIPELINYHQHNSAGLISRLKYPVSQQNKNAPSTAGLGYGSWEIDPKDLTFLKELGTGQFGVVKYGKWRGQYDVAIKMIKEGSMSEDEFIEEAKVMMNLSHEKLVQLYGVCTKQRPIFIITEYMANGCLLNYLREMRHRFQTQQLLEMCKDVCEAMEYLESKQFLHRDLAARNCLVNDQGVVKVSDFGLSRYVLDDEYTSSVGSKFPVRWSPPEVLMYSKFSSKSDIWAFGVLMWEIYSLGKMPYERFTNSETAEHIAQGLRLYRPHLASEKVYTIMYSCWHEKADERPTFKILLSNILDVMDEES

Biological target: BTK (Homo sapiens, UniProt Q06187)
Test: BTK degradation in TMD-8 cells, HTRF assay after 6 h treatment
Conditions: for DC50: IC50 (DC50) of BTK degradation
Protocol: TMD-8 cells are treated with compounds diluted in 0.2% DMSO, dilution is done according to the following protocol: (1) make 500× stock solution in DMSO from 1 mM by 6-fold dilution, total 8 doses were included; (2) make 2× solution in cell culture medium by transferring 0.5 μl 500× stock solution into 125 μl medium; (3) 15 μl of 2× solution is added to cells and incubate for 6 h.
After 6 h treatment, add 10 μl 4×lysis buffer to each well; seal the plate and incubate 30 min at room temperature on a plate shaker; Once the cells are lysed, 16 μL of cell lysate are transferred to a PE 384-well HTRF detection plate; 4 μL of pre-mixed HTRF antibodies are added to each well; Cover the plate with a plate sealer, spin 1000 rpm for 1 min, Incubate overnight at room temperature; Read on BMG PheraStar with HTRF protocol (337 nm-665 nm-620 nm).
The IC50 (DC50) value of a compound can be obtained by fitting the following equation
Y=Bottom+(TOP−Bottom)/(1+((IC50/X)^hillslope))
Wherein, X and Y are known values, and IC50, Hillslope, Top and Bottom are the parameters obtained by fitting with software. Y is the inhibition percentage (calculated from the equation), X is the concentration of the compound; IC50 is the concentration of the compound when the 50% inhibition is reached. The smaller the IC50 value is, the stronger the inhibitory ability of the compound is. Vice versa, the higher the IC50 value is, the weaker the ability the inhibitory ability of the compound is; Hillslope represents the slope of the fitted curve, generally around 1*; Bottom represents the minimum value of the curve obtained by data fitting, which is generally 0%±20%; Top represents the maximum value of the curve obtained by data fitting, which is generally 100%±20%. The experimental data were fitted by calculating and analyzing with Dotmatics data analysis software.

Structure (SMILES)	DC50 [nM]	Dmax (maximum percentage of inhibition (degradation)) [%]
Cc1cc(-c2n[nH]c3ncc(-c4ccc(N5CC6CN(CC7CCN(c8ccc(N9CCC(=O)NC9=O)cc8)CC7)CC6C5)cn4)cc23)ccc1[C@@H](C)NC(=O)c1noc(C(C)(C)C)n1 (stereo partly shown)	2.07	–
Cc1cc(-c2n[nH]c3ncc(-c4ccc(C5CCN(CCCOc6ccc(NC7CCC(=O)NC7=O)cc6)CC5)cc4)cc23)ccc1CNC(=O)c1nc(C(C)(C)C)no1 (stereo not shown)	1.81	98.17
Cc1cc(-c2n[nH]c3ncc(-c4ccc(N5CCN(CCc6ccc(C7CC(=O)NC7=O)cc6)CC5)cc4)cc23)ccc1[C@@H](C)NC(=O)c1nc(C(C)(C)C)no1 (stereo partly shown)	> 2000	–
